Experimental data taken from PubChem BioAssay AID485298 (National Center for Advancing Translational Sciences (NCATS), 2010).
This is a selection; strong and weak results do not stand in their true shares. Active and inactive are the calls of the source. Calls come from the whole dose curve; as a rule, active = well fitted activation curve with a large enough effect; inconclusive = small, poorly fitted or top-dose-only effect; inactive = no such curve, though single readings can be large or run the other way.

assay: qHTS Assay for Small Molecule Inhibitors of Mitochondrial Division or Activators of Mitochondrial Fusion; note: nearly all actives have a fitted effect of over 45% in size; for growth rescue (activation): % of control where 0% means no effect; settings: S. cerevisiae fusion-defective mutant growth rescue, CellTiterGlo 48 h; series mostly up to 46.1 µM; growth rescue (activation): at the top concentration
Excerpt: NIH Chemical Genomics Center [NCGC] NIH Molecular Libraries Probe Production centers Network [MLPCN] MLPCN Grant: MH081279-01 Assay Submitter (PI): Jodi M. Nunnari NCGC Assay Overview: The budding yeast S. cerevisiae is a powerful system to study mitochondrial fusion. Unlike other organisms, yeast cells without functional mitochondrial DNA (mtDNA) can be propagated and studied as long as they maintain a mitochondrial compartment and are provided with a fermentable carbon source. When mitochondrial fusion is blocked in yeast, mitochondrial tubules rapidly fragment and division continues unopposed. Under conditions where fusion is compromised in mammalian cells, nearly identical changes in mitochondrial structure have been observed. Thus, these findings indicate that steady state mitochondrial structure in cells is a characteristic and specific indicator of fusion activity. Mounting evidence has pointed to a connection between mitochondrial dynamics and apoptosis in mammalian cells. These studies indicate that in mammalian cells mitochondrial dynamics are more integrated into cellular processes than in yeast cells and have evolved not only to distribute the organelle but also to aid in the regulation of cellular homeostasis. Mitochondrial fusion proteins attenuate apoptosis by inhibiting the release of cytochrome c from mitochondria, in part by controlling cristae structures. Thus, small molecules that inhibit mitochondrial […] may promote apoptosis and potentially act as novel chemotherapeutics and stimulation of apoptosis has become an attractive target of anti-cancer therapies. To identify inhibitors of mitochondrial division, we exploit the growth phenotypes of mitochondrial fusion-defective mutants. The temperature sensitive fusion alleles, such as fzo1-1 and mgm1-5, cause mitochondrial membranes to fragment in cells under non-permissive conditions and cells lose mtDNA, and are unable to grow in the presence of non-fermentable carbon source glycerol. Inhibiting mitochondrial division rescues growth. We have developed and optimized a luminescence cell viability assay in 1536 well format for the identification of inhibitors in the yeast mitochondrial fusion-defective assay.
The yeast glycerol stocks where kindly supplied by the laboratory of Dr. Jodi Nunnari, University of California, Davis. All yeast glycerol stock solutions were stored in single use aliquots at -80C. The CellTiterGlo luminescence reagent, containing luciferase and luciferin, were purchased from Promega, and the reagents were stored according to manufacturer's instructions. The Buffer components for the YPEG yeast growth medium were purchased from Sigma-Aldrich (St. Louis, MO). YPEG growth medium: 1% (w/v) yeast extract, 2% (w/v) Bacto-peptone, 3% Ethanol, 3% glycerol, 0.4mM Tryptophan, 0.36mM Adenine. qHTS Assay Protocol: 1.#Dispense 2.5 ul yeast growth medium per 1536 well plate. 2.#Transfer 23 nl per well of compound to plate. 3.#Dispense 2.5 ul yeast solution at appropriate seeding density per well. 4.#Incubate for 48 hours at 37C. 5.#Dispense 5 ul of CellTiterGlow solution per well. 6.#Incubate at ambient for 10 minutes. 7.#Read using bio-luminescence protocol on Viewlux.
Potency is the fitted concentration of half-maximal effect.

SMILES	growth rescue (activation)	Potency
NS(=O)(=O)c1cccc(NC(=O)COC(=O)C(O)(c2ccccc2)c2ccccc2)c1	inactive: -2.73%	
O=P1(Nc2ccc(Br)cn2)COc2ccccc2OC1	inactive: 0.349%	
O=[As](O)(c1cccs1)c1cccs1	inactive: -7.51%	
Cc1ccc(OCC(=O)OC2CN3CCC2CC3)cc1 (stereo not drawn)	inactive: 6.8%	
Nc1cccc([As](=O)(O)c2ccccc2)c1	inactive: -4.15%	
O=P1(Nc2ncccn2)COc2ccccc2OC1	inactive: -2.22%	
O=C(/C=C/c1ccccc1)OC1CN2CCC1CC2 (stereo not drawn)	inactive: 7.31%	
CN(C)C1(CNC(=O)c2ccc(S(C)(=O)=O)cc2)CCCCC1	inactive: 0.685%	
Cc1nn(-c2ccccc2)c2c1P(=O)(N1CCOCC1)N(C)C(c1ccccc1)=N2 (stereo not drawn)	inactive: 5.81%	
Cc1ccc(C(=O)OC2CN3CCC2CC3)cc1 (stereo not drawn)	inactive: -15.1%	
CC1CCC(C(C)C)C(OP(=O)(Nc2ccccn2)c2ccccc2)C1 (stereo not drawn)	inactive: 1.82%	
O=[As](O)(c1ccccc1Br)c1ccccc1Br	inactive: 1.93%	
CN(C(=O)Cc1ccc(Cl)c(Cl)c1)[C@@H]1CCCC[C@H]1N1CCCC1	inactive: 3.98%	
CC(C)/C=N\N=C(\N)N[N+](=O)[O-]	inactive: 2.54%	
COc1ccccc1CNC(=O)COC(=O)C(O)(c1ccccc1)c1ccccc1	inactive: 3.96%	
Clc1n[nH]nc1-c1nn[nH][15n]1	inactive: 2.71%	
CC(C)(C)C(=O)NC(Sc1ncccn1)C(Cl)(Cl)Cl (stereo not drawn)	inactive: 3.45%	
CN(CCCl)Cc1cc(Cl)c(NC2=NCCN2)c(Cl)c1	inactive: 11.7%	
CCOP(=O)(Nc1ccc(C)cn1)OCC	inactive: 20.4%	
CCC1=CC2Cc3nc4ccc(Cl)cc4c(N)c3C(C1)C2 (stereo not drawn)	inactive: -5.56%	
O=P1(Nc2ccccn2)COc2ccccc2OC1	inactive: -2.39%	
CCOP(=O)(NC(=NC(C)c1ccccc1)NC(C)c1ccccc1)OCC (stereo not drawn)	inactive: -12%	
COc1cc(C2NCCC3(OCCO3)C2(C)C)cc(OC)c1OC (stereo not drawn)	inactive: -4.38%	
CCOP(=O)(Nc1cccc2ccccc12)OCC	inactive: -9.1%	

SMILES	growth rescue (activation)	Potency
CCCOP(=S)(Nc1nc(N)cc(=O)[nH]1)OCCC	inactive: -7.32%	
Nc1cccc2c([As](=O)(O)O)cccc12	inactive: -18.2%	
Cc1ccc(NCCc2c([N+](=O)[O-])cc([N+](=O)[O-])cc2[N+](=O)[O-])cc1	inactive: 4.03%	
O=[As](O)(c1cccc(O)c1)c1cccc(O)c1	inactive: -4.27%	
Cc1cccc(OCC(=O)OC2CN3CCC2CC3)c1 (stereo not drawn)	inactive: 2.25%	
COc1cc(C(=O)NCC2(N3CCOCC3)CCCCC2)cc(Cl)c1OC(C)C	inactive: -9.05%	
O=[As](O)(O)c1cccnc1	inactive: -6.6%	
CS(=O)(=O)c1ccc(Cl)c(NC(=O)COC(=O)C(O)(c2ccccc2)c2ccccc2)c1	inactive: 2.2%	
O=C(OC1CN2CCC1CC2)c1ccc(Cl)cc1 (stereo not drawn)	inactive: -2.6%	
CN(C(=O)Cc1ccc(Cl)c(Cl)c1)[C@@H]1CC[C@]2(CCCO2)C[C@H]1N1CCCC1	inactive: -9.73%	
O=[N+]([O-])c1ccc2c(c1)nnn2O	inactive: 2.92%	
N#CCCN(C(=O)COC(=O)C(O)(c1ccccc1)c1ccccc1)c1ccc(F)cc1	inactive: -0.191%	
CCOP1(=S)c2c(C)nn(CCC#N)c2N=C(c2ccc(F)cc2)N1C (stereo not drawn)	inactive: -0.303%	
CN(C(=O)Cc1ccccc1)[C@@H]1CC[C@]2(CCCO2)C[C@H]1N1CCCC1		inactive
NC(=O)Nc1ccc([As](=O)(O)O)cc1	inactive: -2.77%	
O=C(O)COc1ccc([As](=O)(O)O)cc1[N+](=O)[O-]	inactive: 4.53%	
Nc1ccccc1[As](=O)(O)c1ccccc1	inactive: -3.85%	
CS(=O)(=O)c1cc([N+](=O)[O-])c2no[n+]([O-])c2c1	inactive: 3.52%	
CCOP1(=S)c2c(C)nn(CCC#N)c2N=C(c2ccccc2F)N1C (stereo not drawn)	inactive: 24.7%	
O=P(Nc1nccs1)(c1ccccc1)c1nc2ccccc2s1 (stereo not drawn)	inactive: -3.25%	
O=P(Nc1nccs1)(Oc1ccccc1)Oc1ccccc1	inactive: 22.5%	
CCN(CC)C(=S)SC(NC=O)C(Cl)(Cl)Cl (stereo not drawn)	inactive: 0.441%	
CC(C)NC(=O)NP(=O)(Oc1ccccc1)Oc1ccccc1	inactive: -2.61%	
O=[N+]([O-])c1cc([N+](=O)[O-])c(-c2ccn[nH]2)s1		active: 11.2 µM

SMILES	growth rescue (activation)	Potency
CC(C)c1ccc(OP(=O)(Nc2ccccn2)Oc2ccccc2F)cc1 (stereo not drawn)	inactive: 6.83%	
ClCCSc1nnc(-c2cccnc2)o1	inactive: -1.37%	
Cc1ccc2nc3c(c(C)c2c1)CC(C(Cl)Cl)S3 (stereo not drawn)	inactive: 5.97%	
Cc1ccc(OP(=O)(Nc2ccc([N+](=O)[O-])cn2)Oc2ccc(C)cc2)cc1	inactive: 13.9%	
C[As](=O)(O)c1cccc(C(=O)O)c1	inactive: 1.26%	
O=[As](O)(c1ccc(O)cc1)c1ccccc1O	inactive: 11.5%	
COc1cc(C(=O)NCC2(N3CCOCC3)CCCCC2)ccc1OCC(C)C	inactive: -2.65%	
COc1ccc(N/C(=N/P(=O)(N2CCOCC2)N2CCOCC2)N2CCOCC2)cc1	inactive: -4.15%	
COc1ccc2nc(NP(=O)(c3ccccc3)c3ccccc3)sc2c1	inactive: 2.04%	
COc1cc(I)ccc1[As](=O)(O)O	inactive: -3.95%	
O=C(OC1CN2CCC1CC2)C12CC3CC(CC(C3)C1)C2 (stereo not drawn)	inactive: -4.3%	
Cc1cc(=O)[nH]c(N[N+](=O)[O-])n1	inactive: 1.85%	
Cc1c2c(nc3ccccc13)SC(C(Cl)Cl)C2 (stereo not drawn)	inactive: 4.77%	
CCC(C)N(CC(C)C)C(=S)SC(NC(C)=O)C(Cl)(Cl)Cl (stereo not drawn)	inactive: 2.83%	
CCOC(=O)c1ccc(NC(=O)C(C)(CCl)SC)cc1 (stereo not drawn)	inactive: -5.45%	
O=C(OC1CN2CCC1CC2)c1cccc([N+](=O)[O-])c1 (stereo not drawn)	inactive: -2.12%	
O=C(COc1ccccc1)OC1CN2CCC1CC2 (stereo not drawn)	inactive: -2.03%	
O=C(Nc1ccncc1[N+](=O)[O-])c1ccc([N+](=O)[O-])cc1[N+](=O)[O-]	inactive: -27.5%	
COP1(=S)c2c(C)nn(CCC#N)c2N=C(c2ccc(F)cc2)N1C (stereo not drawn)	inactive: 11.1%	
O=[N+]([O-])c1ccc(Nc2ccc(Oc3ccc([N+](=O)[O-])cc3[N+](=O)[O-])cc2)c([N+](=O)[O-])c1	inactive: 2.74%	
Cc1cc(SC(NC=O)C(Cl)(Cl)Cl)ncn1 (stereo not drawn)	inactive: 13.5%	
O=P(Nc1ccccn1)(c1cccc2ccccc12)c1cccc2ccccc12	inactive: 3.36%	
CCOC(=O)Nc1cccc([As](=O)(O)O)c1	inactive: -0.0655%	
CCCCOc1ccc(C(=O)NCC2(N3CCCCC3)CCCCC2)cc1OC	inactive: -5.25%	

SMILES	growth rescue (activation)	Potency
Cc1cc(SC(NC(=O)c2ccccc2)C(Cl)(Cl)Cl)nc(C(C)C)n1 (stereo not drawn)	inactive: 12.8%	
CCOC(=O)Nc1ccc([As](=O)(O)O)c(O)c1	inactive: -4.09%	
O=[N+]([O-])c1cccc(NC2=NCC(CBr)S2)c1 (stereo not drawn)	inactive: -4.84%	
O=C(O)CNc1ccc([As](=O)(O)O)cc1	inactive: 0.177%	
CC(C)(C)C(=O)NC(Sc1ccncn1)C(Cl)(Cl)Cl (stereo not drawn)	inactive: 9.95%	
O=[N+]([O-])c1ncn(CCn2ncnc2[N+](=O)[O-])n1	inactive: -1.05%	
O=C(Nc1cc([As](=O)(O)O)ccc1O)c1ccccc1	inactive: 10.2%	
CC(C)=N/N=C(\N)N[N+](=O)[O-]	inactive: 4.58%	
CN(C)C(=O)OCCc1n(C)cc[n+]1C	inactive: -8.2%	
CC1CCN(C(=O)Oc2c(Cl)cc(Cl)c3cccnc23)CC1	inactive: 5.43%	
Nc1ccc([As](=O)(O)c2ccc(N)cc2)cc1	inactive: -5.8%	
C[N+]1=C2C=CC=CC=C2SC12C([N+](=O)[O-])=CC([N+](=O)[O-])=C[C-]2[N+](=O)[O-] (stereo not drawn)	inactive: -6.64%	
CCN(/C(=N/P(=O)(N1CCOCC1)N1CCOCC1)N1CCOCC1)c1ccc(OC)cc1	inactive: 0.061%	
CC(=O)N1C2C3N(C(C)=O)C1C1N(C(C)=O)C(C(N1C(C)=O)N3C(C)=O)N2C(C)=O	inactive: -0.101%	
O=[N+]([O-])c1cccc2n[nH]nc12	inactive: 2.23%	
Cc1ccc(NP(=O)(Oc2ccccc2)Oc2ccccc2)nc1	inactive: -4.56%	
O=[N+]([O-])c1cc([N+](=O)[O-])c(CCNc2ccccc2)c([N+](=O)[O-])c1	inactive: 4.09%	
CCc1nc2c(n1)c1c(non1O)c1c2no[n+]1[O-]	inactive: -5.14%	
COc1ccc(C2=NCC(CBr)S2)cc1 (stereo not drawn)	inactive: 2%	
CC(C)CC(=O)NC(Sc1ccc(Cl)cc1)C(Cl)(Cl)Cl (stereo not drawn)	inactive: -1.93%	
Nc1cc(N)c2nonc2c1[N+](=O)[O-]	inactive: -1%	
Oc1ccccc1CNc1ccccn1	inactive: 3.9%	
Cc1c2non([O-])c-2c(C)[n+](=O)[n+]1[O-]	inactive: -11.4%	
O=C(NC(Sc1ccncn1)C(Cl)(Cl)Cl)c1ccccc1 (stereo not drawn)	inactive: 4.83%	

SMILES	growth rescue (activation)	Potency
COc1ccccc1OP(=O)(Nc1ccc(C)cn1)Oc1ccccc1OC	inactive: -1.94%	
Cc1ccc(OP(=O)(Nc2nccs2)Oc2ccc(C)cc2)cc1	inactive: -5.15%	
Clc1ccc(Cl)c(NC2=NCC(CBr)S2)c1 (stereo not drawn)	inactive: -12.5%	
CN1CCCC(OC(=O)C(c2ccccc2)c2ccccc2)C1 (stereo not drawn)	inactive: 1.34%	
NC(=O)c1cc([N+](=O)[O-])cc([N+](=O)[O-])c1N	inactive: -1.67%	
CN(C(=O)Cc1ccc(Cl)c(Cl)c1)[C@H]1CCCC[C@H]1N1CCCC1	inactive: 1.98%	
Cc1ccc(N/C(=N/P(=O)(N2CCOCC2)N2CCOCC2)N2CCOCC2)cc1	inactive: 0.826%	
CCN(N=Nc1nonc1N)c1nonc1N	inactive: -7.59%	
O=[N+]([O-])c1cc([N+](=O)[O-])c(CCN2CCOCC2)c([N+](=O)[O-])c1	inactive: 6.04%	
CCOP(=O)(Nc1ccccc1)OCC		inactive
Cc1cc(SC(NC(=O)c2ccc(F)cc2)C(Cl)(Cl)Cl)ncn1 (stereo not drawn)	inactive: 6.34%	
CN(C(=O)Cc1ccc(Cl)c(Cl)c1)[C@H]1CCCC[C@@H]1N1CCCC1		inactive
Cc1ccc(NP(=O)(Oc2ccccc2F)Oc2ccccc2F)nc1	inactive: 3.39%	
O=C(O)c1ccccc1[As](=O)(O)O	inactive: -13.9%	
CC(=O)Nc1ccc([As](=O)(O)O)cc1	inactive: 4.46%	
O=P(Nc1nc2ccc(Cl)cc2s1)(c1ccccc1)c1ccccc1	inactive: 13.4%	
Cc1ccccc1OP(=O)(Nc1ccccn1)Oc1ccccc1C	inactive: 10.3%	
CN(C)C(=O)Oc1noc2ccccc12	inactive: 2.07%	
O=c1c2cc([N+](=O)[O-])ccc2[nH]c2c([N+](=O)[O-])cc([N+](=O)[O-])cc12	inactive: -32.7%	
COC(=O)c1cc2c(s1)N=C(c1ccccc1)N(C)P2(=O)N1CCOCC1 (stereo not drawn)	inactive: 1.11%	
Cc1ccc(OP(=O)(Nc2ccccn2)Oc2ccc(C)cc2)cc1	inactive: 12.8%	
CC(=O)NC(SC(=S)N(CC(C)C)CC(C)C)C(Cl)(Cl)Cl (stereo not drawn)	inactive: 0.847%	
